Reference: patent US20140134690A1, “MICROBES AND METHODS FOR PRODUCING 1-PROPANOL” (University of Georgia Research Foundation, Inc., priority 2012, published 2014)

Legend:
CC(=O)C=O = assay: cells, lysate or membranes named; conditions: other: methylglyoxal 20-120 mM, 0.25 mM NADH, crude extract, imidazole-HCl pH 7.0, 37° C.
CC(=O)CO = assay: cells, lysate or membranes named; conditions: other: hydroxyacetone 20-120 mM, 0.25 mM NADH, crude extract, imidazole-HCl pH 7.0, 37° C.

E. coli MG1655 glycerol dehydrogenase (gldA), wild type (Escherichia coli K-12)
Km (CC(=O)C=O): 68.24 ± 0.05 mM | Km (CC(=O)CO): 10.47 ± 0.55 mM
